## Ab-91 heavy chain CDR variants: yeast mating affinities

Source: Engelhart et al. 2022 (doi:10.1038/s41597-022-01779-4), MIT Lincoln Laboratory and A-Alpha Bio; data file from the FLAb repository.

Binding partner: SARS-CoV-2 spike HR2 peptide, sequence PDVDLGDISGINAS.

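The library (AAYL51) carries one to three amino acid substitutions per variant, with no insertions or deletions. AlphaSeq pools MATa yeast showing the antibodies with MATalpha yeast showing the peptide. Pairs that bind mate more often; barcode pairs of the diploids are counted by sequencing. Read counts were normalised to the haploid input and turned into Kd by a linear fit to BCL2-family pairs of known affinity, for each replicate. Mating was done three times.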

Parent: Ab-91, a human scFv built as VL, a 15-residue (Gly4Ser)3 linker, VH. Only the CDRs of the heavy chain vary.
VL: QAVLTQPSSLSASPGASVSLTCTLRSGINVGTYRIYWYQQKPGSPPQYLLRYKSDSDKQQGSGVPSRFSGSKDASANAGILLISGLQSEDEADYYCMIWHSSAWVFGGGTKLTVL
VH: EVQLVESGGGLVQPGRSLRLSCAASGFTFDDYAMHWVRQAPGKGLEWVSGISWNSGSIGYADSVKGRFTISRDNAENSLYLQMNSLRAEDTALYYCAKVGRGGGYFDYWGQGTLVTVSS

The whole VH of each variant is written out. Affinities are written as log10 Kd with Kd in nM; a lower number is a better binder. "ND" marks a missing value. The strain was present, yet no cells mated with the target were sequenced in that replicate, which points to weak or no binding. As a blank, each scFv also met three strains without target: over library AAYL51, 21% of these pairings were detected, typically at 4.54 and seldom below 3.26. The control count says in how many pairings with the empty strains this scFv gave a signal, with their mean in brackets.

VH,log10 Kd (nM) by replicate,signal with controls
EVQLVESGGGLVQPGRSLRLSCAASGFTQDDYAMHWVRQAPGKGLEWVSVISWGSGSIGYADSVKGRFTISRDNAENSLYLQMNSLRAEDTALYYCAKVGRGGGYFDYWGQGTLVTVSS,4.44 ND ND,1/9 (4.74)
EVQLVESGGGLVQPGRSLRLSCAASGFTVDDGALHWVRQAPGKGLEWVSGISWNSGSIGYADSVKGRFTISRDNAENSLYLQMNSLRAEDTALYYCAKVGRGGGYFDYWGQGTLVTVSS,ND ND ND,1/9 (4.31)
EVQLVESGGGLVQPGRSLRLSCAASGFTFDDRAMHWVRQAPGKGLEWVSGISWNSGSIGYADSVKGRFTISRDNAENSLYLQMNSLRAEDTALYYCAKVGRGGEYFDHWGQGTLVTVSS,5.05 5.23 4.47,5/9 (4.42)
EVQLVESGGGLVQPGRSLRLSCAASGFTFCDYAMHWVRQAPGKGLEWVSGISWNSNSIGYADSSKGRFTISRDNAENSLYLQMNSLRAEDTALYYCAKVGRGGGYFDYWGQGTLVTVSS,3.31 3.97 3.76,3/9 (4.36)
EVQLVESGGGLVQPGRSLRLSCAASGFTFDDYAMVWVRQAPGKGLEWVSTISWNSGSIGYADSVKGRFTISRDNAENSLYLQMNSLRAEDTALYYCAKVARGGGYFDYWGQGTLVTVSS,ND ND ND,0/9
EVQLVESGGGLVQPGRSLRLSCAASGFTFDLYAMHWVRQAPGKGLEWVSGISWNSGSIGYADDVKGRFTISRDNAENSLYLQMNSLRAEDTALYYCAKVGRGGGYFDYWGQGTLVTVSS,4.66 4.21 ND,4/9 (4.10)
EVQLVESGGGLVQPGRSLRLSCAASGFTFDDYAMHWVRQAPGKGLEWVSGISKNSGSGGYADSVKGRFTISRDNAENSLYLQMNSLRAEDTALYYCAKVGRGGGYFDYWGQGTLVTVSS,3.84 5.06 ND,4/9 (4.29)
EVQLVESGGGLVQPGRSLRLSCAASGATFDDYAMYWVRQAPGKGLEWVSGISTNSGSIGYADSVKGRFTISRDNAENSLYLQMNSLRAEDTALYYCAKVGRGGGYFDYWGQGTLVTVSS,ND ND 5.02,0/9
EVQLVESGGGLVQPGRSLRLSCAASGFTFDDYAMHWVRQAPGKGLEWVSDISFNSGSIGYADSVKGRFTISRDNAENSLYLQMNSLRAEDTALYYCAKVGRGGGYFKYWGQGTLVTVSS,4.16 5.30 4.68,7/9 (5.00)
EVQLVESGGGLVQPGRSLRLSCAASGFTFTDYAMHWVRQAPGKGLEWVSGISWNSGSIGLADSVKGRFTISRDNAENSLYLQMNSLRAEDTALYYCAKVGRGGGYVDYWGQGTLVTVSS,ND ND ND,4/9 (4.18)
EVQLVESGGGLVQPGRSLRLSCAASGFTFDDYAMHWVRQAPGKGLEWVSGISWNSGSIGYSDDVKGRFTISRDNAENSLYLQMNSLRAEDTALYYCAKVGREGGYFDYWGQGTLVTVSS,2.53 3.32 1.66,0/9
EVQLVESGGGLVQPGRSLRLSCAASGFTFDDYAMHWVRQAPGKGLEWVSGESWDSGSIGYADSVKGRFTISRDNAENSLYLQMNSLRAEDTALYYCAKVGRGGGYFSYWGQGTLVTVSS,ND ND ND,1/9 (3.16)
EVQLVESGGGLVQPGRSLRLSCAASGFTFDDYATHWVRQAPGKGLEWVSGISWNEGSIGYADTVKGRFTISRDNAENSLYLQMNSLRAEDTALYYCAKVGRGGGYFDYWGQGTLVTVSS,ND ND ND,0/9
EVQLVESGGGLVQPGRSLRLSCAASGFTFDDYAMHWVRQAPGKGLEWVSGISWNSGSIGYADSFLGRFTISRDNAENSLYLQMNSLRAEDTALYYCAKVGRGGLYFDYWGQGTLVTVSS,3.48 3.58 2.90,2/9 (4.48)
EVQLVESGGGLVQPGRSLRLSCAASGFTFDDYAMHWVRQAPGKGLEWVSGISWDSGSEGYADSVKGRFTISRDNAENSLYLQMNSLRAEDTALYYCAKVGRGGGYFIYWGQGTLVTVSS,ND ND ND,2/9 (4.23)
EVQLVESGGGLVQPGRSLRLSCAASGFTFDDYAMHWVRQAPGKGLEWVSGRVWNSGSIGYADSVKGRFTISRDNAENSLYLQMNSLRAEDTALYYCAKTGRGGGYFDYWGQGTLVTVSS,ND ND ND,1/9 (2.81)

A selection of 2 entries from above:

VH,log10 Kd (nM) by replicate,signal with controls
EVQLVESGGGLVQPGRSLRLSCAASGFTFDDYAMVWVRQAPGKGLEWVSTISWNSGSIGYADSVKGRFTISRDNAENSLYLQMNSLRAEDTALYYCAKVARGGGYFDYWGQGTLVTVSS,ND ND ND,0/9
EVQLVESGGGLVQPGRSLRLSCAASGFTQDDYAMHWVRQAPGKGLEWVSVISWGSGSIGYADSVKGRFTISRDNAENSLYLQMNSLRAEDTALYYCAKVGRGGGYFDYWGQGTLVTVSS,4.44 ND ND,1/9 (4.74)